## Ab-14 light chain CDR variants: yeast mating affinities

Target peptide (SARS-CoV-2 spike, HR2 region): PDVDLGDISGINAS

Each scFv is VH, three GGGGS repeats, VL, as in the parent Ab-14, and differs from it in the CDRs of the light chain only.
VH: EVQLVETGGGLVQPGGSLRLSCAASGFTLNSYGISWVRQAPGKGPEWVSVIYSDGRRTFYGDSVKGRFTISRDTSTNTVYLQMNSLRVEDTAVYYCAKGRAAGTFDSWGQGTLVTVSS
VL: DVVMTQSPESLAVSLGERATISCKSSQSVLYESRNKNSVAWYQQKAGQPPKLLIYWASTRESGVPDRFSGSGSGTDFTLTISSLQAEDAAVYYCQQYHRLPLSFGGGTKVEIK

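The library (AAYL50) carries one to three amino acid substitutions per variant, with no insertions or deletions. Affinity was read by AlphaSeq, a pooled yeast mating assay with surface-displayed partners. After mating in shaken culture at 30 °C for 16 h, diploids were selected and their barcode pairs sequenced. A regression on co-assayed BCL2-family reference pairs converts the normalised counts of each replicate to an apparent Kd. The assay was run in three technical replicates.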

Substitutions are numbered in sequence along the VL above, starting at 1 (not Kabat).
This list gathers variants with a substitution at E32 (VL, numbered from residue 1).
The Kd shown is the geometric mean over detected replicates; a lower Kd is a better binder.
"nd" marks a missing value. The strain was present, yet no cells mated with the target were sequenced in any replicate, which points to weak or no binding.

changes,Kd (apparent),detected
E32M/L100C/S103Y,170 nM,1 of 3
V29M/E32M/A40K,1.5 µM,1 of 3
E32V/N37M/S103L,nd,0 of 3
E32N/Q95N/Y97F,nd,0 of 3
V29N/E32A/R34M,6.0 nM,3 of 3
V29C/E32W/S62F,1.1 µM,3 of 3
V29C/E32G/N37E,43 nM,3 of 3
E32D/S33M/W56S,850 pM,3 of 3
E32A/A40Q/Q95I,3.4 µM,2 of 3
S25Q/Y31S/E32V,25 nM,3 of 3
S28C/E32D/N37E,2.0 µM,1 of 3
E32T/S33C/T59P,2.0 mM,1 of 3
E32P/S38V,14 nM,3 of 3
V29D/E32Q/Y97C,17 nM,3 of 3
E32P/H98R/R99Q,18 nM,3 of 3
Y31G/E32I/S103I,6.6 nM,3 of 3
E32C/K36I/Q96F,31 µM,3 of 3
E32N/A57V/L100C,nd,0 of 3
E32W/A40N/Q96V,26 µM,2 of 3
E32R/V39H/Y97K,670 nM,1 of 3
Q27G/E32K/T59V,120 nM,3 of 3
E32I/S33D/R34W,2.1 µM,3 of 3
S26M/E32L/N35L,1.2 µM,1 of 3
E32F/V39F/Q96C,4.0 µM,1 of 3
E32H/R34P/S103F,940 nM,3 of 3
S28Y/E32A/R99G,130 nM,3 of 3
E32F,28 nM,3 of 3
E32Y/L100H,9.0 µM,1 of 3
E32Y/R34P/L102H,40 nM,3 of 3
E32A/A40K,60 µM,1 of 3
E32S/Q96C/Y97K,100 nM,3 of 3
E32N/S62D/L100N,15 nM,3 of 3
E32K/V39Y,120 µM,1 of 3
E32F/W56L/S58W,1.4 µM,1 of 3
E32N/S38N/S58C,190 nM,3 of 3
E32N/S33G/P101S,39 nM,3 of 3
Q27P/E32H/N35T,nd,0 of 3
E32S/A57L/P101H,2.1 µM,2 of 3
E32N/Q96R/P101Q,21 µM,1 of 3
E32C/S33F,4.5 µM,1 of 3
Y31E/E32G/Q96V,nd,0 of 3
S25F/S26M/E32M,14 nM,3 of 3
E32C/T59S,750 nM,1 of 3
E32Q/R99E,16 nM,3 of 3
S28R/E32T/A57R,nd,0 of 3
E32A/R34H/S58W,130 nM,3 of 3
E32P/P101F/L102H,7.2 nM,3 of 3
K24N/E32R/K36F,920 nM,3 of 3
E32P/S62T/Q96N,nd,0 of 3
E32H/S38F/S103A,30 µM,2 of 3
E32Q/K36I,62 nM,3 of 3
S28F/E32K/S62T,4.3 µM,3 of 3
E32A/R34D/H98D,9.2 nM,3 of 3
L30D/E32M/T59P,nd,0 of 3
E32I/S33Q/H98D,320 nM,3 of 3
S25E/E32D,11 nM,3 of 3
E32W/K36A/S58Y,240 nM,3 of 3
E32C/N35Q,1.8 µM,1 of 3
S26H/L30M/E32K,290 nM,3 of 3
S28T/E32T/L102T,nd,0 of 3
S28G/E32W/S33N,nd,0 of 3
E32C/R99L/L102K,510 nM,3 of 3
E32N/S33I/Q95T,83 nM,3 of 3
E32P/S62E,2.5 nM,3 of 3
E32V,680 nM,3 of 3
L30Q/E32N,6.2 nM,3 of 3
E32Q/Q95V/R99Q,nd,0 of 3
L30V/E32T/K36H,12 nM,3 of 3
E32Q/W56Q/L102Q,28 nM,3 of 3
E32W/Y97S/L102N,nd,0 of 3
S25C/E32N/S33N,7.0 nM,3 of 3
E32I/S33Q/N37S,1.3 µM,3 of 3
E32L/E61A,34 nM,3 of 3
V29L/E32S/R99S,4.0 nM,3 of 3
V29G/E32L/S58R,3.1 µM,2 of 3
E32N/Q95A,690 nM,1 of 3
E32R,130 nM,3 of 3
L30K/E32R/H98V,1.5 µM,1 of 3
E32Y/N35L/R60W,nd,0 of 3

Picked from the list: the 10 lowest averages where every replicate gave a value.

changes,Kd (apparent),detected
E32D/S33M/W56S,850 pM,3 of 3
E32P/S62E,2.5 nM,3 of 3
V29L/E32S/R99S,4.0 nM,3 of 3
V29N/E32A/R34M,6.0 nM,3 of 3
L30Q/E32N,6.2 nM,3 of 3
Y31G/E32I/S103I,6.6 nM,3 of 3
S25C/E32N/S33N,7.0 nM,3 of 3
E32P/P101F/L102H,7.2 nM,3 of 3
E32A/R34D/H98D,9.2 nM,3 of 3
S25E/E32D,11 nM,3 of 3

Nonspecific signal, from three strains lacking the peptide, appeared in 18% of pairings of library AAYL50, centred on 15 µM (5% of these signals below 970 nM); values are not corrected for it.
Parent in this assay: reference entry 4.4 nM, copy in this library 48 nM.

From the AlphaSeq antibody data of Engelhart et al. 2022 (doi:10.1038/s41597-022-01779-4), copy in the FLAb collection.